{"source": "patent US12171806B2", "about": "“Therapeutic regimens and methods for lowering blood glucose and/or body weight using GLP-1R and GCGR balanced agonists” (priority 2021, dated 2024)", "key": {"[1]": {"experiment": "Phase 1 MAD study of ALT-801: systolic and diastolic blood pressure", "details": "12 weeks, 1.2, 1.8 and 2.4 mg"}, "[2]": {"experiment": "Phase 1 MAD study of ALT-801: serum lipids (total cholesterol, LDL, HDL, triglycerides)", "type": "in vivo, human", "details": "for HDL cholesterol, change from baseline, mean / HDL cholesterol, percent change from baseline, mean / LDL cholesterol, change from baseline, mean / LDL cholesterol, percent change from baseline, mean / Total cholesterol, change from baseline, mean / Total cholesterol, percent change from baseline, mean / Triglycerides, change from baseline, mean / Triglycerides, percent change from baseline, mean: 12-week MAD", "protocol": "Blood samples are collected for evaluation of ketone bodies after the subject has fasted overnight for at least 10 hours, 1 day prior to the first and second doses, and 6 days after the last dose. Blood samples for evaluation of FGF-21 and adiponectin are collected after the subject has fasted overnight for at least 10. Following a minimum 10 hour fast, blood is collected for assessment of lipids, including cholesterol (total, HDL, LDL), Apo A and B, lipoprotein(a), TG, and tripalmitin, prior to the first dose and 6 days after the last dose of study medication, as indicated in Table 4. Blood is collected for the assessment of inflammatory markers, including TNF-α, hs-CRP, leptin, MCP-1, and IL-6 prior to the first dose and 6 days after the last dose of study medication, as indicated in Table 4. Glucose homeostasis is assessed by 24-hour CGM using a Dexcom G6 CGM during the periods indicated in Part 1 and Part 2."}, "[3]": {"experiment": "Example 6 planned Phase 1 study of ALT-801 in overweight and obese subjects with T2DM", "details": "SC once weekly up to 12 doses"}, "[4]": {"experiment": "Phase 1 study: pharmacokinetic (PK) parameters of ALT-801 in plasma", "type": "in vivo", "details": "human, 1.8 mg SC", "text": "Pharmacokinetic (“PK”) parameters can be estimated using Phoenix® WinNonlin® version 8.1 or higher (Certara USA, Inc., Princeton, New Jersey). A non-compartmental approach consistent with the extravascular route of administration can be used for parameter estimation. The individual plasma concentration-time data can be used for pharmacokinetic calculations. In addition to parameter estimates for individual animals, descriptive statistics (e.g. mean, standard deviation, coefficient of variation, median, min, max) can be determined, as appropriate. Concentration values that are below the limit of quantitation can be treated as zero for determination of descriptive statistics and pharmacokinetic analysis. Embedded concentration values that are below the limit of quantitation can be excluded from pharmacokinetic analysis. All parameters can be generated from individual dual agonist peptide (or derivatives and/or metabolites thereof) concentrations in plasma from test article-treated groups on the day of dosing (Day 1). Parameters can be estimated using nominal dose levels, unless out of specification dose formulation analysis results are obtained, in which case actual dose levels can be used. Parameters can be estimated using nominal sampling times; if bioanalytical sample collection deviations are documented, actual sampling times can be used at the affected time points. […] Pharmacokinetic parameters can be calculated and presented in the units provided by the analytical laboratory (the order of magnitude can be adjusted appropriately for presentation in the report, e.g. h*ng/mL converted to h*μg/mL). Descriptive statistics (e.g., mean, standard deviation, coefficient of variation, median, min, max) and pharmacokinetic parameters can be determined to three significant figures, as appropriate. […] PK parameters to be determined, as data permit, can include but are not limited to the following: Cmax: Maximum observed concentration; DN Cmax: dose normalized maximum concentration, calculated as Cmax/dose; Tmax: time of maximum observed concentration; AUC0-t: area under the curve from time 0 to the time of the last measurable concentration, calculated using the linear trapezoidal rule; AUC0-96: area under the curve from time 0 to hour 96, calculated using the linear trapezoidal rule; DN AUC0-96: dose normalized AUC0-96, calculated as AUC0-96/dose; AUC0-inf: area under the curve from time 0 to infinity (Day 1 only), calculated as AUC0-inf=AUC0-t+Ct/λz, where Ct is the last observed quantifiable concentration and λz is the elimination rate constant; t1/2: elimination half-life, calculated as ln(2)/λz. Additional parameters and comparisons (e.g., sex ratios, dose proportionality ratios, etc.) can also be determined, as would be understood by those of ordinary skill in the art. […]"}}, "data": [{"smiles": "CC[C@H](C)[C@H](NC(=O)[C@H](Cc1ccccc1)NC(=O)[C@H](CCC(=O)O)NC(=O)[C@@H]1CCCCNC(=O)CC[C@H](NC(=O)[C@H](CC(=O)O)NC(=O)[C@H](CC(C)C)NC(=O)[C@H](Cc2ccc(O)cc2)NC(=O)[C@H](CCCCN)NC(=O)[C@H](CO)NC(=O)[C@H](Cc2ccc(O)cc2)NC(=O)[C@H](CC(=O)O)NC(=O)[C@H](CO)NC(=O)[C@@H](NC(=O)[C@H](Cc2ccccc2)NC(=O)[C@@H](NC(=O)CNC(=O)[C@H](CCC(N)=O)NC(=O)C(C)(C)NC(=O)[C@@H](N)Cc2c[nH]cn2)[C@@H](C)O)[C@@H](C)O)C(=O)N[C@@H](CCCCNC(=O)[C@H]2O[C@@H](OCCCCCCCCCCCCCCCCCC(=O)O)[C@H](O)[C@@H](O)[C@@H]2O)C(=O)N[C@@H](C)C(=O)N[C@@H](C)C(=O)N1)C(=O)N[C@@H](CCC(N)=O)C(=O)N[C@@H](Cc1c[nH]c2ccccc12)C(=O)N[C@@H](CC(C)C)C(=O)N[C@@H](CC(C)C)C(=O)N[C@@H](CCC(N)=O)C(=O)N[C@H](C(N)=O)[C@@H](C)O", "note": "[ALT-801, pemvidutide]", "values": [{"measurement": "blood pressure, in words", "setting": "[1]", "result": "improved blood pressure across all dose groups"}, {"measurement": "HDL cholesterol, change from baseline, mean", "setting": "[2]; 1.2 mg SC once weekly", "result": -7.1, "unit": "mg/dL"}, {"measurement": "HDL cholesterol, percent change from baseline, mean", "setting": "[2]; 1.2 mg SC once weekly", "result": "−16.7", "unit": "%"}, {"measurement": "LDL cholesterol, change from baseline, mean", "setting": "[2]; 1.2 mg SC once weekly", "result": -24.7, "unit": "mg/dL"}, {"measurement": "LDL cholesterol, percent change from baseline, mean", "setting": "[2]; 1.2 mg SC once weekly", "result": "−16.9", "unit": "%"}, {"measurement": "Total cholesterol, change from baseline, mean", "setting": "[2]; 1.2 mg SC once weekly", "result": -41.4, "unit": "mg/dL"}, {"measurement": "Total cholesterol, percent change from baseline, mean", "setting": "[2]; 1.2 mg SC once weekly", "result": "−20.0", "unit": "%"}, {"measurement": "Triglycerides, change from baseline, mean", "setting": "[2]; 1.2 mg SC once weekly", "result": -59.0, "unit": "mg/dL"}, {"measurement": "Triglycerides, percent change from baseline, mean", "setting": "[2]; 1.2 mg SC once weekly", "result": "−37.0", "unit": "%"}, {"measurement": "HDL cholesterol, change from baseline, mean", "setting": "[2]; 1.8 mg SC once weekly", "result": -14.2, "unit": "mg/dL"}, {"measurement": "HDL cholesterol, percent change from baseline, mean", "setting": "[2]; 1.8 mg SC once weekly", "result": "−30.25"}, {"measurement": "LDL cholesterol, change from baseline, mean", "setting": "[2]; 1.8 mg SC once weekly", "result": -37.4, "unit": "mg/dL"}, {"measurement": "LDL cholesterol, percent change from baseline, mean", "setting": "[2]; 1.8 mg SC once weekly", "result": "−30.35"}, {"measurement": "Total cholesterol, change from baseline, mean", "setting": "[2]; 1.8 mg SC once weekly", "result": -60.6, "unit": "mg/dL"}, {"measurement": "Total cholesterol, percent change from baseline, mean", "setting": "[2]; 1.8 mg SC once weekly", "result": "−28.05"}, {"measurement": "Triglycerides, change from baseline, mean", "setting": "[2]; 1.8 mg SC once weekly", "result": -43.3, "unit": "mg/dL"}, {"measurement": "Triglycerides, percent change from baseline, mean", "setting": "[2]; 1.8 mg SC once weekly", "result": "−37.95"}, {"measurement": "HDL cholesterol, change from baseline, mean", "setting": "[2]; 2.4 mg SC once weekly", "result": -15.9, "unit": "mg/dL"}, {"measurement": "HDL cholesterol, percent change from baseline, mean", "setting": "[2]; 2.4 mg SC once weekly", "result": "−36.0", "unit": "%"}, {"measurement": "LDL cholesterol, change from baseline, mean", "setting": "[2]; 2.4 mg SC once weekly", "result": -29.4, "unit": "mg/dL"}, {"measurement": "LDL cholesterol, percent change from baseline, mean", "setting": "[2]; 2.4 mg SC once weekly", "result": "−26.7", "unit": "%"}, {"measurement": "Total cholesterol, change from baseline, mean", "setting": "[2]; 2.4 mg SC once weekly", "result": -52.7, "unit": "mg/dL"}, {"measurement": "Total cholesterol, percent change from baseline, mean", "setting": "[2]; 2.4 mg SC once weekly", "result": "−28.0", "unit": "%"}, {"measurement": "Triglycerides, change from baseline, mean", "setting": "[2]; 2.4 mg SC once weekly", "result": -33.0, "unit": "mg/dL"}, {"measurement": "Triglycerides, percent change from baseline, mean", "setting": "[2]; 2.4 mg SC once weekly", "result": "−29.3", "unit": "%"}, {"measurement": "serum lipid levels, in words", "setting": "[2]; 12 weeks, 1.2, 1.8 and 2.4 mg", "result": "improvements in serum lipid levels"}, {"measurement": "expected outcome of trial", "setting": "[3]", "result": "safe and tolerable"}, {"measurement": "AUC", "setting": "[4]", "result": 3.4, "unit": "µM·h"}, {"measurement": "half-life", "setting": "[4]; read-out: Half-life (t1/2) (converted)", "result": 4.58, "unit": "days"}, {"measurement": "Cmax", "setting": "[4]; read-out: Peak concentration (Cmax)", "result": 27.1, "unit": "nM"}, {"measurement": "Tmax", "setting": "[4]; read-out: Time to peak concentration (Tmax)", "result": 70, "unit": "h"}]}]}
